The results in this text go back to US8470841B2, “Heterocyclic compounds, processes for their preparation, medicaments comprising these compounds, and the use thereof” (Sanofi, priority 2008, dated 2013).

Structures are written as SMILES.

Broadly, the IC50 is the point on the concentration scale where inhibition reaches its midpoint.

The experiment concerns the target human ACC1 (Homo sapiens (Human), UniProt Q13085). Kind of experiment: Enzymatic luminometric assay of ACC inhibitors, human ACC1. The note with it: read-out: IC50 hACC (human ACC1), table row printed as hACC.

On to `CC(=O)N[C@@H](C)COc1ccc(Oc2ccc(OC(C)C)cc2)cc1` [Example 59, N—{(S)-2-[4-(4-Isopropoxyphenoxy)phenoxy]-1-methylethyl}acetamide, reference compound], for which the IC50 amounted to 7.8 µM.
